Assay results reported in PubChem BioAssay AID434950 (Johns Hopkins Ion Channel Center, 2010).
Only a part is listed here, and it is no random draw. Active and inactive are the calls of the source.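 How the source made its calls: active means membrane potential signal rise above negative control mean plus 3 SD in both duplicates, also active in the earlier TRPC4 screen; inactive means the rest.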

The chains behind the UniProt entries cited, without tags or fusion partners.
UniProt Q61143, whole entry: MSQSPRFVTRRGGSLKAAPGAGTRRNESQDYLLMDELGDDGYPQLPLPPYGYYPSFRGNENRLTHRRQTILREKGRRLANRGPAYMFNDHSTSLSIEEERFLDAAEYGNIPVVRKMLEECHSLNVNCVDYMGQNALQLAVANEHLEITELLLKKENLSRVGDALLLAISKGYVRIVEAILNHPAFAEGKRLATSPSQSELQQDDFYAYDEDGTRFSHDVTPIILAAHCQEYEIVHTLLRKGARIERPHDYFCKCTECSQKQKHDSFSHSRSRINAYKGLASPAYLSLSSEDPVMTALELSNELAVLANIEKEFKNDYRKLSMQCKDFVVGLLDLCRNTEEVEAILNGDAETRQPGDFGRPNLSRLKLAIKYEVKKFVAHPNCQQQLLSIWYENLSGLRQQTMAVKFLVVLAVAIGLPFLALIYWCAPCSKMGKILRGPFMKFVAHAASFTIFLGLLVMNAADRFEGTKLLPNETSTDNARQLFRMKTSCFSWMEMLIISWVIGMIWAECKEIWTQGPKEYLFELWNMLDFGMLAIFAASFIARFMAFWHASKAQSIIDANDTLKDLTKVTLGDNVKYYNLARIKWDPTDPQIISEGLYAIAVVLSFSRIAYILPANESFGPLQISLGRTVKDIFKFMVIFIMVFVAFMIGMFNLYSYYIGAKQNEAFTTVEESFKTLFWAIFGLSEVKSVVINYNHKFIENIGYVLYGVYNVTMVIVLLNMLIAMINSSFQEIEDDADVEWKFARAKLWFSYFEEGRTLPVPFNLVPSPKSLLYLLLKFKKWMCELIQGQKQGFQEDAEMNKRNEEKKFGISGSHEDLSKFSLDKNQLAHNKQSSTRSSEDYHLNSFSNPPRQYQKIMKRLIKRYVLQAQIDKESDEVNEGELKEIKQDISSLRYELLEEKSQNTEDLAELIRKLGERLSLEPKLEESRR

target: Short transient receptor potential channel 6 (Mus musculus) (UniProt Q61143); assay: TRPC6 opening by TRPC4 activator hits – cell-based, HEK293, membrane potential dye, duplicate, selectivity assay for TRPC4 activator project, confirmation (AID 434950); settings: HEK293 TRPC6, membrane potential fluorescence, activation; at 10 µM

Row | SMILES | outcome
1 | CCN(CC)CCCOC(=O)C(O)(c1ccccc1)c1ccccc1 | inactive
2 | CN(C)CCOC(=O)C(O)(c1ccccc1)C1CCCC1 (configuration not stated) | inactive
